# Reference: article PMC6273065, “Synthesis, Molecular Modelling and Biological Evaluation of Novel Heterodimeric, Multiple Ligands Targeting Cholinesterases and Amyloid Beta” (Molecules, 2016)
# Conditions: PAMPA-BBB, 2 h at 37 °C, means of two replicates
smiles,measurement,value
"CC(=O)[C@H]1CC[C@H]2[C@@H]3CCC4=CC(=O)CC[C@]4(C)[C@H]3CC[C@]12C [Progesterone, reference compound]",Log Pe,–3.8
